Experimental data published in ChEMBL document CHEMBL6127118, “Identification of Oral Bioavailable Coumarin Derivatives as Potential AR Antagonists Targeting Prostate Cancer” (J Med Chem, 2024).

Key:
Format in all cases: cell-based
[1] = target: T1, Progesterone receptor (Homo sapiens) (UniProt P06401); experiment: Agonist activity at progesterone-induced Progesterone receptor (unknown origin) transfected in HEK293T cells at high concentration by Dual-Luciferase Reporter assay
T1 sequence (whole entry): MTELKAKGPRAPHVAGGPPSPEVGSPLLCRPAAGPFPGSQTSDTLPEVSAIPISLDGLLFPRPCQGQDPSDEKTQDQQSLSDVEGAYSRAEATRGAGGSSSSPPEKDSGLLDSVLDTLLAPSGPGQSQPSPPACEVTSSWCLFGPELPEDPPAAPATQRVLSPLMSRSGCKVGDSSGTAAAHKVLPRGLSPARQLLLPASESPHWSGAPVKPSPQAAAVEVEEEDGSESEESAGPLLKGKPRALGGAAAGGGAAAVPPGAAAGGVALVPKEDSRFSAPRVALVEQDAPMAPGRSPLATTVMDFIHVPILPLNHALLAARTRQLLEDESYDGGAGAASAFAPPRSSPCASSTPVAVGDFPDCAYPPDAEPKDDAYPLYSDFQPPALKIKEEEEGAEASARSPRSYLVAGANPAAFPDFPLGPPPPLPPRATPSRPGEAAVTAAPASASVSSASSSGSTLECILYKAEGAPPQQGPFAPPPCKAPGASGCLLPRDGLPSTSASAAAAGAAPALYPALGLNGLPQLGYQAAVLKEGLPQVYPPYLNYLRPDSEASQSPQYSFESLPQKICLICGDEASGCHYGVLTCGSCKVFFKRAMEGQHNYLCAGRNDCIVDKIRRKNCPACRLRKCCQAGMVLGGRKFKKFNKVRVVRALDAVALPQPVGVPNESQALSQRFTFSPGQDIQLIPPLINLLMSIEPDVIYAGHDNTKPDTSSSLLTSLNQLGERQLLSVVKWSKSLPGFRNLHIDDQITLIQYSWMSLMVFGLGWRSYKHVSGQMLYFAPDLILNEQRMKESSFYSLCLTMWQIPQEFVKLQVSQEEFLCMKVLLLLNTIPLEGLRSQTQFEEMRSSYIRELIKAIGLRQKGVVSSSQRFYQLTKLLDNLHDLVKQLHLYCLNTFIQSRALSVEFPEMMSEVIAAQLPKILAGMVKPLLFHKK

[2] = target: T1, Progesterone receptor (Homo sapiens); experiment: Antagonist activity at progesterone-induced Progesterone receptor (unknown origin) transfected in HEK293T cells at high concentration by Dual-Luciferase Reporter assay
[3] = target: T2, Glucocorticoid receptor (Homo sapiens) (UniProt P04150); experiment: Agonist activity at dexamethasone-induced Glucocorticoid receptor (unknown origin) transfected in HeLa cells co-expressing mmTV incubated for 24 hrs by Dual-Luciferase Reporter assay
T2 sequence (whole entry): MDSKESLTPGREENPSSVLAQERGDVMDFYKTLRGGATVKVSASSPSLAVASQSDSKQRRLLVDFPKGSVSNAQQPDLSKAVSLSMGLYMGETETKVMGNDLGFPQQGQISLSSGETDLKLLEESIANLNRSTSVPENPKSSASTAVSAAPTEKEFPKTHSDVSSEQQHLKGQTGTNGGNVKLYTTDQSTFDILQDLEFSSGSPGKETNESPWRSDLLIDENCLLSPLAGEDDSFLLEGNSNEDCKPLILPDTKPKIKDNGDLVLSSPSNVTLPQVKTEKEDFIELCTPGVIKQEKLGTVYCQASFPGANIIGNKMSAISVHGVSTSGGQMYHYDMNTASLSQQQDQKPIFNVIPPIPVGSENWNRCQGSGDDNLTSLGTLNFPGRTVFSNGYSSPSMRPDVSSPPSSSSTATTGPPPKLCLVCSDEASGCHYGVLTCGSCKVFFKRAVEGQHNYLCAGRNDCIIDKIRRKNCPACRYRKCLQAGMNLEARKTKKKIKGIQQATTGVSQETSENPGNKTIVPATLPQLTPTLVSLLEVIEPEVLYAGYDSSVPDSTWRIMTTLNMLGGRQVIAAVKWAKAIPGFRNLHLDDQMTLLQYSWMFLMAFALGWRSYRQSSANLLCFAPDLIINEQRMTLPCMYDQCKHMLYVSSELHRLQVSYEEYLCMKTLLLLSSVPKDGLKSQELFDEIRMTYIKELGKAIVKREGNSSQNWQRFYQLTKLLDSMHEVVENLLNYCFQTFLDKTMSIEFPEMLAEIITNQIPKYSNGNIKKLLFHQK

[4] = target: T3, Mineralocorticoid receptor (Homo sapiens) (UniProt P08235); experiment: Antagonist activity at aldosterone-induced Mineralocorticoid receptor (unknown origin) transfected in HEK293T cells by Dual-Luciferase Reporter assay
T3 sequence (whole entry): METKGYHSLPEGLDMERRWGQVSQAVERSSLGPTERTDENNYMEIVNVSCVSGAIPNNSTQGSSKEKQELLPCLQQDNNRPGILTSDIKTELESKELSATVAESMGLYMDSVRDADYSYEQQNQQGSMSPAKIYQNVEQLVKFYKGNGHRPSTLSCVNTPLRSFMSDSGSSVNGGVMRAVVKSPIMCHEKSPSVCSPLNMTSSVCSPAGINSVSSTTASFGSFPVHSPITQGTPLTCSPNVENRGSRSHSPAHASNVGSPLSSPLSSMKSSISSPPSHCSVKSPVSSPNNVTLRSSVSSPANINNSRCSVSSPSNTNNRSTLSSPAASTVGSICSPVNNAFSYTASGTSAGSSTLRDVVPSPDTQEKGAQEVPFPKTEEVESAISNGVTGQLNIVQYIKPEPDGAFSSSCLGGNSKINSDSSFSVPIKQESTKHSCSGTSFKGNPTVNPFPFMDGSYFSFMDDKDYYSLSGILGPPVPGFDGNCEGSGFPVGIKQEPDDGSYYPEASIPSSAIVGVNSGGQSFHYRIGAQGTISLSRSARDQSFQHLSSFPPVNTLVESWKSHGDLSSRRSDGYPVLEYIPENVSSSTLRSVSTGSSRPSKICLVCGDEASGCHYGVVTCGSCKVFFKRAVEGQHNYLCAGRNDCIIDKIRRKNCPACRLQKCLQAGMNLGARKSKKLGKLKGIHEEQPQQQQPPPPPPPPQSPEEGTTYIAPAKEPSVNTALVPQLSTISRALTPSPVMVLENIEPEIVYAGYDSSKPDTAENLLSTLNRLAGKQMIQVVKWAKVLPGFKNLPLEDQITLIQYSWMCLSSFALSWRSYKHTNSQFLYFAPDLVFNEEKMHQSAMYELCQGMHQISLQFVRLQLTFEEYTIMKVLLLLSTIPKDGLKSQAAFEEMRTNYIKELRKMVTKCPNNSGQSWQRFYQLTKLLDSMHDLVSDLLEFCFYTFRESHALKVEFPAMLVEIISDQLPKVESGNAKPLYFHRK

Measured: Activity

CN(Cc1ccc(F)cc1)c1ccc2c(C(F)(F)F)cc(=O)oc2c1
inactive: [1] | [2] | [3]

CNC(=O)c1ccc(N2C(=S)N(c3ccc(C#N)c(C(F)(F)F)c3)C(=O)C2(C)C)cc1F [ENZALUTAMIDE]
inactive: [1] | [2] | [4] | [3]

Calls of active or inactive are those of the source.
